Here are results for 23 compounds from patent publication US20240173419A1, “CDK2 DEGRADERS AND USES THEREOF” (Kymera Therapeutics, Inc., priority 2022, published 2024).

Where only a bound is given, the exact number is not on record here.

The target in this experiment is CDK2 (Homo sapiens, UniProt P24941). Put plainly: CDK2 degradation in MKN1 cells (AlphaLISA). The note with it: for CDK2 degradation 14 h: Average Dmax %: 14 h incubation; for DC50: read-out: CDK2 degradation 14 h: Mean external-Abs DC50, 14 h incubation. In outline: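 MKN1 cells (2e4/well) treated 14 h at 37° C with 11-point 1:5 dilutions (0.001 nM-10 μM, 0.1% DMSO). CDK2 in lysates quantified by AlphaLISA, no-cell background subtracted; DC50 from four-parameter logistic fit.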

Turning to `Cc1cc(S(=O)(=O)N[C@H]2CC[C@H](N(C)C3CN(c4ccc(C5CCC(=O)NC5=O)cc4F)C3)CC2)ccc1Nc1ncc(C(F)(F)F)c(N2CCC[C@](C)(O)C2)n1` (stereo partly shown), the “CDK2 degradation 14 h: Average Dmax %” value is given as “C (C (>25% -50%))” and the DC50 is over 1000 nM.

For the compound `Cc1cc(S(=O)(=O)N[C@H](C)CO[C@H]2CC[C@H](CN3CCN(c4ccc5c(c4F)n(C)c(=O)n5C4CCC(=O)NC4=O)CC3)CC2)ccc1Nc1ncc(C(F)(F)F)c(N2CCC[C@](C)(O)C2)n1` (stereo partly shown), the “CDK2 degradation 14 h: Average Dmax %” value is reported as “A (A (>75% o))” and the 50% degradation concentration (DC50) was under 100 nM.

As to `Cc1cc(S(=O)(=O)N[C@@H]2CCN(CC3CCN(c4ccc(C5CCC(=O)NC5=O)c(F)c4)CC3)C[C@H]2F)ccc1Nc1ncc(C(F)(F)F)c(N2CCC[C@](C)(O)C2)n1` (stereo partly shown), the “CDK2 degradation 14 h: Average Dmax %” value was “A (A (>75% o))” and the DC50 was under 100 nM.

On to `Cc1cc(S(=O)(=O)N[C@H]2CC[C@H](OC3CN(c4ccc(C5CCC(=O)NC5=O)cc4F)C3)CC2)ccc1Nc1ncc(C(F)(F)F)c(N2CCC[C@](C)(O)C2)n1` (stereo partly shown), for which the “CDK2 degradation 14 h: Average Dmax %” value is “C (C (>25% -50%))” and the DC50 was over 1000 nM.

`Cc1cc(S(=O)(=O)N[C@@H]2CCN(CC3CCN(c4ccc(C5CCC(=O)NC5=O)cc4F)CC3)C[C@@H]2F)ccc1Nc1ncc(C(F)(F)F)c(N2CCC[C@](C)(O)C2)n1` (stereo partly shown): the “CDK2 degradation 14 h: Average Dmax %” value was “A (A (>75% o))” and the half-maximal degradation concentration (DC50) was under 100 nM.

Turning to `Cc1cc(S(=O)(=O)N[C@H]2CC[C@H](CN3CCN(c4ccc(NC5CCC(=O)NC5=O)c(Cl)c4)CC3)CC2)ccc1Nc1ncc(C(F)(F)F)c(N2CCC[C@](C)(O)C2)n1` (stereo partly shown), the “CDK2 degradation 14 h: Average Dmax %” value is “A (A (>75% o))” and the half-maximal degradation concentration (DC50) is under 100 nM.

`Cc1cc(S(=O)(=O)N2CCN(CCCCC#Cc3ccc4c(c3)n(C)c(=O)n4C3CCC(=O)NC3=O)CC2)ccc1Nc1ncc2ccc(=O)n(C3CCCC3)c2n1` (stereo not shown): the “CDK2 degradation 14 h: Average Dmax %” value is on record as “B (B (>50% -75%))” and the DC50 was over 1000 nM.

As to `C[C@]1(O)CCCN(c2nc(Nc3ccc(S(=O)(=O)N[C@H]4CC[C@H](CN5CCN(c6ccc(C7CCC(=O)NC7=O)c(F)c6)CC5)CC4)cc3Cl)ncc2C(F)(F)F)C1` (stereo partly shown), the “CDK2 degradation 14 h: Average Dmax %” value is “A (A (>75% o))” and the DC50 is under 100 nM.

Take `Cc1cc(S(=O)(=O)N[C@H]2CC[C@H](CN3CCN(c4cccc(NC5CCC(=O)NC5=O)c4)CC3)CC2)ccc1Nc1ncc2c(n1)N([C@@H]1CCC[C@@H](O)C1)C(=O)C21CC1` (stereo partly shown): the “CDK2 degradation 14 h: Average Dmax %” value was “A (A (>75% o))” and the half-maximal degradation concentration (DC50) was under 100 nM.

In the case of `Cc1cc(S(=O)(=O)N[C@H]2CC[C@H](CN3CCN(c4ccc(C5CCC(=O)NC5=O)cc4)C(=O)C3)CC2)ccc1Nc1ncc2c(n1)N([C@@H]1CCC[C@@H](O)C1)C(=O)C21CC1` (stereo partly shown), the “CDK2 degradation 14 h: Average Dmax %” value is on record as “A (A (>75% o))” and the half-maximal degradation concentration (DC50) was under 100 nM.

Turning to `Cc1cc(S(=O)(=O)N[C@H]2CC[C@H](CN3CCN(c4cc(N[C@@H]5CCC(=O)NC5=O)ccc4F)CC3)CC2)ccc1Nc1ncc(C(F)(F)F)c(N2CCC[C@](C)(O)C2)n1`, the “CDK2 degradation 14 h: Average Dmax %” value was “A (A (>75% o))” and the 50% degradation concentration (DC50) was under 100 nM.

Regarding `Cc1cc(S(=O)(=O)CCCCN2CCN(CC3CCN(c4ccc5c(c4)n(C)c(=O)n5C4CCC(=O)NC4=O)CC3)CC2)ccc1Nc1ncc(C(F)(F)F)c(-c2cnn(C)c2)n1` (stereo not shown), the “CDK2 degradation 14 h: Average Dmax %” value was “B (B (>50% -75%))” and the DC50 is under 100 nM.

As to `Cc1cc(S(=O)(=O)C2CC3(CCN(CC4CCN(c5ccn(C6CCC(=O)NC6=O)c(=O)c5)CC4)CC3)C2)ccc1Nc1ncc2ccc(=O)n(C3CCCC3)c2n1` (stereo not shown), the “CDK2 degradation 14 h: Average Dmax %” value is given as “A (A (>75% o))” and the DC50 was under 100 nM.

Regarding `Cc1cc(S(=O)(=O)N[C@H]2C[C@H](N3CC4CC3CN4CC3CCN(c4c(Cl)ccc5c4n(C)c(=O)n5C4CCC(=O)NC4=O)CC3)C2)ccc1Nc1ncc(C(F)(F)F)c(N2CCC[C@](C)(O)C2)n1` (stereo partly shown), the “CDK2 degradation 14 h: Average Dmax %” value is “A (A (>75% o))” and the 50% degradation concentration (DC50) is under 100 nM.

For `Cc1cc(S(=O)(=O)NC2CCC(F)(CN3CCN(c4ccc(C5CCC(=O)NC5=O)cc4F)CC3)CC2)ccc1Nc1ncc(C(F)(F)F)c(N2CCC[C@](C)(O)C2)n1` (single isomer, unassigned), the “CDK2 degradation 14 h: Average Dmax %” value is reported as “A (A (>75% o))” and the 50% degradation concentration (DC50) is under 100 nM.

As for `Cc1cc(S(=O)(=O)NC2CCN(CC3CCN(c4ccc(C5CCC(=O)NC5=O)c(Cl)c4)CC3)CC2)ccc1Nc1ncc(C(F)(F)F)c(N2CCC[C@](C)(O)C2)n1` (stereo partly shown), the “CDK2 degradation 14 h: Average Dmax %” value is recorded as “A (A (>75% o))” and the DC50 was under 100 nM.

For the compound `Cc1cc(S(=O)(=O)N[C@H]2CC[C@H](CN3CCN(c4ccc(C5CCC(=O)NC5=O)c(F)c4)CC3)CC2)ccc1Nc1ncc(C(F)(F)F)c(N2CCC[C@](C)(O)C2)n1` (stereo partly shown), the “CDK2 degradation 14 h: Average Dmax %” value is given as “A (A (>75% o))” and the 50% degradation concentration (DC50) was under 100 nM.

As for `Cc1cc(S(=O)(=O)C2CC3(CCN(CC4CCN(c5cccc6c5n(C)c(=O)n6C5CCC(=O)NC5=O)CC4)CC3)C2)ccc1Nc1ncc(C(F)(F)F)c(N2CCC(C)(O)CC2)n1` (stereo not shown), the “CDK2 degradation 14 h: Average Dmax %” value was “A (A (>75% o))” and the 50% degradation concentration (DC50) was under 100 nM.

Take `[2H]C([2H])([2H])c1cc(S(=O)(=O)N[C@@H]2CCN(CC3CCN(c4ccc(C5CCC(=O)NC5=O)cc4F)CC3)C[C@@H]2F)ccc1Nc1ncc(C(F)(F)F)c(N2CCC[C@](C)(O)C2)n1` (stereo partly shown): the “CDK2 degradation 14 h: Average Dmax %” value is “A (A (>75% o))” and the DC50 is under 100 nM.

For `Cc1cc(S(=O)(=O)NC2CCC3(CC2)CN(Cc2ccc(C4CCC(=O)NC4=O)c(Cl)c2)C3)ccc1Nc1ncc(C(F)(F)F)c(N2CCC[C@](C)(O)C2)n1` (stereo partly shown), the “CDK2 degradation 14 h: Average Dmax %” value is recorded as “B (B (>50% -75%))” and the DC50 was over 1000 nM.

As to `Cc1cc(S(=O)(=O)N[C@H](C)CO[C@H]2CC[C@H](CN3CCN(c4ccc5c(c4F)n(C)c(=O)n5C4CCC(=O)NC4=O)CC3)CC2)ccc1Nc1ncc(C(F)(F)F)c([C@H]2CC[C@@](C)(O)CC2)n1` (stereo partly shown), the “CDK2 degradation 14 h: Average Dmax %” value was “A (A (>75% o))” and the 50% degradation concentration (DC50) is under 100 nM.

Take `Cc1cc(S(=O)(=O)N[C@H]2CC[C@H](CC3CCN(c4ccc(C5CCC(=O)NC5=O)cc4)CC3)CC2)ccc1Nc1ncc(C(F)(F)F)c(N2CCC[C@](C)(O)C2)n1` (stereo partly shown): the “CDK2 degradation 14 h: Average Dmax %” value is recorded as “A (A (>75% o))” and the half-maximal degradation concentration (DC50) was 100 to 500 nM.

Turning to `C[C@]1(O)CCCN(c2nc(Nc3ccc(S(=O)(=O)N[C@@H]4CCN(CC5CCN(c6ccc(C7CCC(=O)NC7=O)c(F)c6)CC5)C[C@@H]4F)cc3F)ncc2C(F)(F)F)C1` (stereo partly shown), the “CDK2 degradation 14 h: Average Dmax %” value is given as “A (A (>75% o))” and the DC50 was under 100 nM.
